Assay results taken from patent US8759386B2, “Pyrazole compounds as CRTH2 antagonists” (Boehringer Ingelheim International GmbH, priority 2011, dated 2014).

By UniProt entry, the sequences of proteins in these tests, tags left out.
UniProt Q9Y5Y4, whole entry: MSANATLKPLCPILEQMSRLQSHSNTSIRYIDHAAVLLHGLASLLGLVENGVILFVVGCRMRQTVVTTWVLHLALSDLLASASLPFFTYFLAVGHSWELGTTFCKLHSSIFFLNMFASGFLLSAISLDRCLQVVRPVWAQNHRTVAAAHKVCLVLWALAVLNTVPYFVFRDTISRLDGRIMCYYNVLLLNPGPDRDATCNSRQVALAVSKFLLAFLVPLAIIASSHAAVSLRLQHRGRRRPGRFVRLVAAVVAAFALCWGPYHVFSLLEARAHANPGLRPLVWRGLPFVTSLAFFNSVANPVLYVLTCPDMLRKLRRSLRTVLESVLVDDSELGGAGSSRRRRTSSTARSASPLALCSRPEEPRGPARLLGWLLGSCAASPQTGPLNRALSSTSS

Molecular target: human CRTH2 receptor (Homo sapiens (Human), UniProt Q9Y5Y4)
Test: CRTH2 receptor radioligand binding assay (SPA, [3H]-PGD2, CHO-K1-hCRTH2 cell membranes)
Conditions: Table 1, compounds of formula Ia″; displacement of [3H]-PGD2 from CHO-K1-hCRTH2 membranes

Row | Ki | Structure (SMILES)
1 | 0.8 nM | Cc1nn(Cc2ccc(NC(=O)c3cc4ccccc4o3)cc2)c(C)c1CC(=O)O
2 | 0.6 nM | CCc1c(C(=O)Nc2ccc(Cn3nc(C)c(CC(=O)O)c3C)c(F)c2)oc2c(F)cccc12
